{"source": "patent US5726159A", "about": "“Antithrombotic agents” (Eli Lilly and Company, priority 1995, dated 1998)", "data": [{"experiment": "Index of bioavailability (% relative activity from plasma TT, oral vs i.v.)", "type": "in vivo", "conditions": "dose-adjusted AUC of plasma TT, p.o. vs i.v.", "units": {"% oral/i.v. activity (Rat)": "%"}, "values": [{"substance": "D-hPro-Pro-p-NHCH2 C6 H4 C(NH)NH2.HCl [Example 17]", "% oral/i.v. activity (Rat)": 15}, {"substance": "EtSO2 -D-Phe-Pro-p-NHCH2 -C6 H4 C(=NH)NH2.HCl [Example 23]", "% oral/i.v. activity (Rat)": 12}, {"substance": "1-Piq-Pro-p-NHCH2 C6 H4 C(NH)NH2.2HCl [Example 18]", "% oral/i.v. activity (Rat)": 12}]}]}
